The target of the assay is Prostaglandin E2 receptor EP4 subtype (Mus musculus, UniProt P32240).

Protein sequences, listed by entry. Tags and fused reporters are not part of them. Lines headed by an entry give the natural chain unless they say otherwise; changes in a name come on top.
UniProt P32240: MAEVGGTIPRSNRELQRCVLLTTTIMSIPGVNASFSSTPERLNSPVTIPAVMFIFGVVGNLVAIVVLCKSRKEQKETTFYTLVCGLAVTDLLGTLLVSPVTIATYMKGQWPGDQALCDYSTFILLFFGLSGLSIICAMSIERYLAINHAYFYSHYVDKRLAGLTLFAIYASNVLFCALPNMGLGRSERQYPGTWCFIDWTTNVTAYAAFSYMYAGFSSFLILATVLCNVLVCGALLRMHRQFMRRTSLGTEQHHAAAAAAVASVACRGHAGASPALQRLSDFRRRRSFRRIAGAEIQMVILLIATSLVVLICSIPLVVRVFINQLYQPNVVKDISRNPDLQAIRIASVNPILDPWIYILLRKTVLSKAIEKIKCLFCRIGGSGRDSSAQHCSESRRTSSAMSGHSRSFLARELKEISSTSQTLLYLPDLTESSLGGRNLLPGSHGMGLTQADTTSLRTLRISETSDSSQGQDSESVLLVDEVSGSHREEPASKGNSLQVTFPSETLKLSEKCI

The record followed here is BindingDB's records for doi:10.1038/sj.bjp.0701367 (Kyoto University, 1997).

Each structure is given as a SMILES string.

In the case of `CCCCC[C@H](O)/C=C/[C@H]1[C@H](O)CC(=O)[C@@H]1C/C=C\CCCC(=O)O` [DINOPROSTONE], the Ki was determined as 1.9 nM.

One may read the Ki as a measure of affinity in units of concentration, obtained from inhibition or displacement. A lower Ki goes with higher affinity.
